The target in this test is human GLP-1 receptor (human) (UniProt P43220). The test is described as follows: cell-based or functional assay.

In turn, exendin-4 peptide displayed an EC50, cell-based cAMP assay of 6.6 pM.
